From PubChem BioAssay AID492953 (The Scripps Research Institute Molecular Screening Center, 2010)
This is a selection; strong and weak results do not stand in their true shares. Some structures show a salt or complex split into parts, the way the source records it. Calls of active or inactive are those of the source.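 Rule for the calls: active = inhibition above the mean of all tested compounds plus 3 SD (cut at about 24% in these data); inactive = the rest.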

The chains behind the UniProt entries cited, without tags or fusion partners.
UniProt P68402, whole entry: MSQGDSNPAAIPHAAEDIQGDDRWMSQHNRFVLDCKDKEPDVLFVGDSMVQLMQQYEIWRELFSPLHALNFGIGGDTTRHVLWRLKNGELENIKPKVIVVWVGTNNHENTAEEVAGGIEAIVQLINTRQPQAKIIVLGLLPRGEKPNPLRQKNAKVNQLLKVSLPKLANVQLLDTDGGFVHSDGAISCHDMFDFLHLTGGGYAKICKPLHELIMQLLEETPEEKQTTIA

Biological target: Platelet-activating factor acetylhydrolase IB subunit alpha2 (Homo sapiens) (UniProt P68402)
Test: inhibition of PAF acetylhydrolase 1b subunit 2 – biochemical, fluorescence polarization, human, primary screen (AID 492953);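 note: 0% = enzyme with DMSO and 100% = wells lacking PAFAH1B2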
Settings: recombinant PAFAH1B2, FP-rhodamine activity probe, at 3.39 µM, active compounds read high

Row | Compound | inhibition
1 | O=[N+]([O-])c1cc([N+](=O)[O-])c(Nc2cccnc2)c([N+](=O)[O-])c1 | inactive: 7.84%
2 | O=[N+]([O-])c1ccc2c(c1)C=Nc1ccccc1O2 | inactive: -0.68%
3 | CC(C)(C)c1ccc(OP(C)(=O)Nc2ccc(SC(F)(F)F)cc2)cc1 (stereo unspecified) | active: 30.4%
4 | Cc1cccc(C)c1OP(C)(N)=O (stereo unspecified) | inactive: -4.78%
5 | COc1ccccc1OP(C)(=O)Nc1ccc(C)cc1 (stereo unspecified) | inactive: -1.78%
6 | Cc1ccc(NP(C)(=O)Oc2ccccc2)c(C)c1 (stereo unspecified) | inactive: 6.96%
7 | CCOC(=O)c1ccc(NP(C)(=O)Oc2ccccc2)cc1 (stereo unspecified) | inactive: -1.74%
8 | Cc1cc(C)cc(OP(C)(N)=O)c1 (stereo unspecified) | inactive: 2.67%
9 | COc1ccccc1OP(C)(=O)Nc1cc(Cl)ccc1C (stereo unspecified) | inactive: 3.7%
10 | COc1ccc(OP(C)(=O)Nc2cccc(F)c2)cc1 (stereo unspecified) | inactive: 4.58%
11 | CCN(CC)CCCOC(=O)C(O)(c1ccccc1)c1ccccc1 | inactive: 3.28%
12 | Cc1cccc(C)c1OP(C)(=O)Nc1ccc(SC(F)(F)F)cc1 (stereo unspecified) | inactive: 1.72%
13 | CP(=O)(Oc1ccccc1)OC(c1ccccc1)C(F)(F)F (stereo unspecified) | inactive: 9.57%
14 | CP(=O)(NC(=O)Nc1ccccc1)Oc1ccccc1 (stereo unspecified) | inactive: 3.36%
15 | CCc1ccc(OP(C)(=O)N2CCN(c3ccc([N+](=O)[O-])cc3)CC2)cc1 (stereo unspecified) | inactive: 10.5%
16 | Cc1cc(C)cc(OP(C)(=O)Nc2ccc(SC(F)(F)F)cc2)c1 (stereo unspecified) | inactive: 3.89%
17 | CCOC(=O)c1ccc(NP(C)(=O)Oc2ccc(OC)cc2)cc1 (stereo unspecified) | inactive: 2.58%
18 | CCOP(C)(=S)SCC(=O)NC(C)C(=O)O (stereo unspecified) | inactive: 12.6%
19 | CP(=O)(Nc1ccccn1)Oc1ccc(Cl)cc1 (stereo unspecified) | inactive: 2.24%

Row | Compound | inhibition
20 | CP(=S)(Nn1cnnc1)Oc1ccccc1 (stereo unspecified) | inactive: 4.76%
21 | CP(=O)(Nc1ccccc1Br)Oc1ccccc1 (stereo unspecified) | inactive: 2.85%
22 | COc1ccccc1OP(C)(=O)Nc1ccccc1 (stereo unspecified) | inactive: 6.09%
23 | CC1=C2N=C(C=C3N=C(C(C)=C4[N-][C@@](C)([C@@H]5N=C1[C@](C)(CCC(=O)NC[C@@H](C)OP(=O)([O-])O[C@H]1[C@@H](O)[C@@H](n6cnc7cc(C)c(C)cc76)O[C@@H]1CO)[C@H]5CC(N)=O)[C@@](C)(CC(N)=O)[C@@H]4CCC(N)=O)[C@@](C)(CC(N)=O)[C@@H]3CCC(N)=O)C(C)(C)[C@@H]2CCC(N)=O.[C-]#N.[Co+3] | inactive: 6.62%
24 | O=[N+]([O-])c1cc([N+](=O)[O-])c(Nc2nnnn2CCO)c([N+](=O)[O-])c1 | inactive: 7.61%
25 | CCOC(=O)C(CC)C1=NC(C)(C)Cc2ccccc21.O=[N+]([O-])c1cc([N+](=O)[O-])c(O)c([N+](=O)[O-])c1 (stereo unspecified) | inactive: 8.31%
26 | CN1CCCCC1COC(=O)C1(O)c2ccccc2CCc2ccccc21 (stereo unspecified) | inactive: -0.55%
27 | COc1ccccc1OP(C)(=O)Nc1c(C)cccc1C (stereo unspecified) | inactive: 4.83%
28 | CCCOc1ccc(NP(C)(=O)Oc2ccc(Cl)cc2)cc1 (stereo unspecified) | inactive: 2.44%
29 | CP(=O)(Nc1ccc(SC(F)(F)F)cc1)Oc1ccccc1 (stereo unspecified) | inactive: 7.78%
30 | O=[N+]([O-])c1cc([N+](=O)[O-])c(-n2nnc3ccccc32)c([N+](=O)[O-])c1 | inactive: 1.03%
31 | O=[N+]([O-])c1cc([N+](=O)[O-])c(-c2cnn(-c3ccccc3)c2)c([N+](=O)[O-])c1 | inactive: 1.87%
32 | Cc1nc2ccc3ccccc3c2s1.O=[N+]([O-])c1cc([N+](=O)[O-])c(O)c([N+](=O)[O-])c1 | inactive: 8.15%
33 | COc1ccccc1OP(C)(=O)Nc1cccc(Br)c1 (stereo unspecified) | inactive: 1.25%
34 | CCOC(=O)c1ccc(NP(C)(=O)Oc2cc(C)cc(C)c2)cc1 (stereo unspecified) | inactive: -1.21%
35 | Cc1cc(C)cc(OP(C)(=O)Nc2ccc(C)cc2C)c1 (stereo unspecified) | inactive: -1.44%
36 | Cc1ccc(C)c(NP(C)(=O)Oc2ccccc2)c1 (stereo unspecified) | inactive: 0.53%
37 | Cc1cc(C)cc(OP(C)(=O)Nc2ccccn2)c1 (stereo unspecified) | inactive: 7.77%
38 | CP(=O)(Nc1cccc(Br)c1)Oc1ccccc1 (stereo unspecified) | inactive: 4.82%

Row | Compound | inhibition
39 | O=C(O)c1cccc(Nc2c([N+](=O)[O-])cc([N+](=O)[O-])cc2[N+](=O)[O-])c1 | inactive: 4.44%
40 | CC1=NCCc2c1[nH]c1ccccc21.O=[N+]([O-])c1cc([N+](=O)[O-])c(O)c([N+](=O)[O-])c1 | inactive: -2.37%
41 | CCOC(=O)c1ccc(NP(C)(=O)Oc2ccc(F)cc2)cc1 (stereo unspecified) | inactive: 2.06%
42 | COc1ccc(OP(C)(=O)Nc2ccc(SC(F)(F)F)cc2)cc1 (stereo unspecified) | inactive: 13.1%
43 | Cc1c([N+](=O)[O-])cc([N+](=O)[O-])c(Br)c1[N+](=O)[O-] | inactive: 2.96%
44 | CCN(CC)CCCOC(=O)C(O)(c1ccccc1)C1CCCCC1 (stereo unspecified) | inactive: 0.26%
45 | CP(=O)(Nc1ccccc1)Oc1ccc(F)cc1 (stereo unspecified) | inactive: -2.09%
46 | CCCCCOc1ccc(NP(C)(=O)Oc2ccc(Cl)cc2Cl)cc1 (stereo unspecified) | inactive: -1.42%
47 | O=[N+]([O-])c1cc([N+](=O)[O-])c(OC2CCCCC2O)c([N+](=O)[O-])c1 (stereo unspecified) | inactive: 1.57%
48 | CP(=O)(Nc1ccccc1F)Oc1ccccc1 (stereo unspecified) | inactive: 3.43%
49 | CC(C)c1ccc(OP(C)(=O)Nc2ccc(SC(F)(F)F)cc2)cc1 (stereo unspecified) | active: 56.7%
50 | O=C(OC1CN2CCC1CC2)c1ccc([N+](=O)[O-])cc1 (stereo unspecified) | inactive: 6.23%
51 | O=C(OCCN1CCN(CCOCc2ccccc2)CC1)C(O)(c1ccccc1)c1ccccc1 | inactive: -1.64%
52 | COc1ccc2c(c1O)-c1c(O)c(OC)cc3c1[C@H](C2)[N+](C)(C)CC3.O=[N+]([O-])c1cc([N+](=O)[O-])c([O-])c([N+](=O)[O-])c1[O-] | inactive: 2.76%
53 | CP(=O)(Nc1ccc(SC(F)(F)F)cc1)Oc1ccc(F)cc1 (stereo unspecified) | inactive: 8.26%
54 | CCOP(C)(=S)SCC(=O)NC(C)(CC)C(=O)O (stereo unspecified) | inactive: 3.73%
55 | CP(=O)(Nc1ccc2c(c1)OCCO2)Oc1ccccc1 (stereo unspecified) | inactive: 3.55%
56 | Cc1ccccc1NP(C)(=O)Nc1ccccc1C | inactive: 4.56%
